This passage reports IC50 results from ChEMBL document CHEMBL1149388, “Synthesis and structure-activity relationships of 3-[(2-methyl-1,3-thiazol-4-yl)ethynyl]pyridine analogues as potent, noncompetitive metabotropic glutamate receptor subtype 5 antagonists; search for cocaine medications” (J Med Chem, 2006).

This assay concerns the target Metabotropic glutamate receptor 5 (Rattus norvegicus) (UniProt P31424). In words: Activity in agonist-induced phosphoinositide hydrolysis in CHO cells expressing mGluR5a.

SMILES strings stand for the structures. pIC50: −log10 of the molar value.

With `Cc1nc(C#Cc2cccnc2)cs1`, the pIC50 (as a rule, the negative decadic logarithm of the IC50, by convention in mol/L) is 6.34.

`Cc1cccc(C#Cc2ccccc2)n1` had a pIC50 of 7.41.
